Source: patent US8354246B2, “Non-MCCJ25-related lariat-peptide inhibitors of bacterial RNA polymerase” (priority 2006, dated 2013)
Several values for one entry are separate records, joined by “and”; a condition that tells them apart may be missing. Equal entries are not always repeated.

Sequences of proteins named here, by UniProt entry; tags and fusion partners are left off.
UniProt P0A8T7, whole entry: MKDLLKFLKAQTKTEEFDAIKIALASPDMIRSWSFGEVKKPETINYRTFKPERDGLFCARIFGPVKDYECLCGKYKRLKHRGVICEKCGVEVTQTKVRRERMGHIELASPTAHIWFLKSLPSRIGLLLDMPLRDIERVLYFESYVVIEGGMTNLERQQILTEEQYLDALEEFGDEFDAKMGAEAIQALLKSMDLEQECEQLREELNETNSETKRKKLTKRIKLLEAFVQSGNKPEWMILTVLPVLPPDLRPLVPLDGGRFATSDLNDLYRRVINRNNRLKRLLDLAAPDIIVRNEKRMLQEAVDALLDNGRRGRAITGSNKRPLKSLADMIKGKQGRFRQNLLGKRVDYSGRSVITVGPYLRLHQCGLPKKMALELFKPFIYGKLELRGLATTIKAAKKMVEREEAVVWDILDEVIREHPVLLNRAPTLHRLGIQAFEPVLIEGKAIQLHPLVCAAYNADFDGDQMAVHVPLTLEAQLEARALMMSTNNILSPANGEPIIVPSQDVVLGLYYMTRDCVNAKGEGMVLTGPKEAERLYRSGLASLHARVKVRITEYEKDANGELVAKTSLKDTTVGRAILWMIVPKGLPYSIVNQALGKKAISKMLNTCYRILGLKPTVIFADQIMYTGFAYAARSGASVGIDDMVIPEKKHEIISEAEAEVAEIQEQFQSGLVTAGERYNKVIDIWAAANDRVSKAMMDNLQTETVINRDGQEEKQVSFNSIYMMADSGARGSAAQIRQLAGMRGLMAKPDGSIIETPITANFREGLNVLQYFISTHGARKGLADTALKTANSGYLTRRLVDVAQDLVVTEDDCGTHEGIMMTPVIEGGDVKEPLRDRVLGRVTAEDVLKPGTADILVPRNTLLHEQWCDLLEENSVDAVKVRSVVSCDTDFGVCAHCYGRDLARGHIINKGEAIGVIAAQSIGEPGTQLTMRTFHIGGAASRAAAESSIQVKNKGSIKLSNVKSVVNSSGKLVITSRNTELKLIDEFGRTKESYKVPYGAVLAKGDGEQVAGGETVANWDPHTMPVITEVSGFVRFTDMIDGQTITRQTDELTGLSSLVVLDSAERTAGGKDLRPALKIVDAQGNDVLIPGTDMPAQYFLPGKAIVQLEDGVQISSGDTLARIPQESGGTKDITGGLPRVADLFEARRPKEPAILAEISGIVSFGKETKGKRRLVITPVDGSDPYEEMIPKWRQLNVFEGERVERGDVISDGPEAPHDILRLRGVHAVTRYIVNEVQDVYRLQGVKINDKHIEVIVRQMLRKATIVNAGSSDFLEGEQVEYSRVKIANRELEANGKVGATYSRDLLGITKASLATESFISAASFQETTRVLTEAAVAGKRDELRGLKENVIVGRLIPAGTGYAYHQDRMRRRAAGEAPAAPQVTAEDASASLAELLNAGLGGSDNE
UniProt Q8RQE8, whole entry: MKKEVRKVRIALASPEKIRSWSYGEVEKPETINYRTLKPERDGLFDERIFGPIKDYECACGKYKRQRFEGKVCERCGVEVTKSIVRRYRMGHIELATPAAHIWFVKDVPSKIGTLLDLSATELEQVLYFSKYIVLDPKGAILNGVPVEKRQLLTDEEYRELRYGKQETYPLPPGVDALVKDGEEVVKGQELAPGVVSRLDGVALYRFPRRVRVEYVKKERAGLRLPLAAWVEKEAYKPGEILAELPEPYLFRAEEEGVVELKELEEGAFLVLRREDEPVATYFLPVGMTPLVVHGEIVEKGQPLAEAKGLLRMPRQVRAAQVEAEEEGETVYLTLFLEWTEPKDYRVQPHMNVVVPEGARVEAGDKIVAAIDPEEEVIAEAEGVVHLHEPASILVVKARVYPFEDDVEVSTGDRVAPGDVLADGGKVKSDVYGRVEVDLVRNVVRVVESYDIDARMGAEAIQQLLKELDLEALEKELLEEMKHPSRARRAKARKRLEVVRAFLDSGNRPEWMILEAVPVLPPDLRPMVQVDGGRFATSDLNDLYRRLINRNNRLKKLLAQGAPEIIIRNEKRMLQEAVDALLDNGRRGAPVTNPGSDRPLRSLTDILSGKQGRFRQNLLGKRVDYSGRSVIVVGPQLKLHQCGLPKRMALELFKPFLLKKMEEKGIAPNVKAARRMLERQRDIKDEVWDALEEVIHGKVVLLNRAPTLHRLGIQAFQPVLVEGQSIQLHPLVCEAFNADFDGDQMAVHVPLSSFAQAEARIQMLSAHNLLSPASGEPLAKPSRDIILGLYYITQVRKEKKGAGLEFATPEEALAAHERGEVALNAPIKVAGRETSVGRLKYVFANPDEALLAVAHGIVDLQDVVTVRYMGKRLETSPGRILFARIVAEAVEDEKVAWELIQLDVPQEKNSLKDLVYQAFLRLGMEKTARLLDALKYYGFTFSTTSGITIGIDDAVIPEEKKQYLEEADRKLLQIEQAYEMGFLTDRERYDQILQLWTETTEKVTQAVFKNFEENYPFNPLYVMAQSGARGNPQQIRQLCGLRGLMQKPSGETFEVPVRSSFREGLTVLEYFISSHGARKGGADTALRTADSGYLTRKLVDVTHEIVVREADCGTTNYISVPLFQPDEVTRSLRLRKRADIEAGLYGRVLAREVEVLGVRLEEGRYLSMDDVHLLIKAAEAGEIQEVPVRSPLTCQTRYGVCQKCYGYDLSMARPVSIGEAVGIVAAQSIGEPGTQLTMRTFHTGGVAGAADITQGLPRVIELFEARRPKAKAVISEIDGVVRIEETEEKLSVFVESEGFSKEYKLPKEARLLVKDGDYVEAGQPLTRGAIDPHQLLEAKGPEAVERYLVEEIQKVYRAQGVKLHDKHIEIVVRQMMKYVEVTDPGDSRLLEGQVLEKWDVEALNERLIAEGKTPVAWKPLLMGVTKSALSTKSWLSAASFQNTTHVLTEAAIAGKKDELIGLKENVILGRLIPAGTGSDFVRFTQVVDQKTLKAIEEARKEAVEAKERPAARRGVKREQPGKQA

Legend:
[1] = molecular target: T1, Escherichia coli σ^70 RNAP holoenzyme (Escherichia coli, UniProt P0A8T7); assay: fluorescence-detected abortive initiation assay; type: biochemical; details: lacUV5-12 DNA fragment, 37° C.
T1 construct: purchased Epicentre, Inc
Description: (§1) Following incubation of reaction mixtures for 5 min at 22° C., 1 μl 1.1 μM DNA fragment lacUV5-12 (Mukhopadhyay et al. (2001) Cell 106, 453-463) was added. Following further incubation of reaction mixtures for […] at 37° C., 0.5 μl 1 mg/ml heparin (Sigma, Inc.; omitted in experiments with T. thermophilus RNAP) and 0.5 μl of 2.75 mM (γ-AmNS)UTP (Molecular Probes, Inc.) were added, and reaction mixtures were transferred to sub-micro fluorometer cuvettes (Starna Cells, Inc.). Following further incubation of reaction mixtures for 2 min at 37° C., RNA synthesis was initiated by addition of 2 μl 11 mM ApA (Sigma, Inc.), and fluorescence emission intensity was monitored for 5 min at 37° C. [excitation wavelength=360 nm and emission wavelength=500 nm; excitation and emission slit widths=4 nm; QuantaMaster QM1 spectrofluorometer (PTI, Inc.)]. The quantity of UMP incorporated into RNA was determined from the quantity of (γ-AmNS) UTP consumed, which, in turn, was calculated as follows (Schlageck et al. 1979): (γ-AmNS)UTPconsumed=[(γ-AmNS)UTP0](Ft−F0)/(12.4×F0) where (γ-AmNS)UTP0 is the quantity of (γ-AmNS)UTP at time 0, F0 is the fluorescence emission intensity at time 0, and Ft is the fluorescence emission intensity at time t.

[2] = molecular target: T2, Thermus thermophilus σ^A RNAP holoenzyme (Thermus thermophilus, UniProt Q8RQE8); assay: fluorescence-detected abortive initiation assay; type: biochemical; details: lacUV5-12 DNA fragment, 37° C.
T2 construct: made in house
Description: as §1

## C[C@@H]1NC(=O)[C@H]([C@@H](C)O)NC(=O)CNC(=O)[C@H](Cc2c[nH]cn2)NC(=O)[C@H](Cc2c[nH]c3ccccc23)NC(=O)[C@H](CC(N)=O)NC(=O)CNC(=O)C[C@@H](C(=O)N[C@@H](Cc2c[nH]c3ccccc23)C(=O)N[C@@H](Cc2ccccc2)C(=O)N[C@@H](Cc2ccccc2)C(=O)N[C@@H](CC(N)=O)C(=O)N[C@@H](Cc2ccc(O)cc2)C(=O)N[C@@H](Cc2ccc(O)cc2)C(=O)N[C@@H](Cc2c[nH]c3ccccc23)C(=O)O)NC(=O)[C@@H]2CCCN2C1=O [RES-701-1]
[1]
  IC50: 2 to 100 µM and 30 µM
[2]
  IC50: 2 to 100 µM and 20 µM
